Earlier results on one substance are cited in article PMC4641155, “Characterization of [^99mTc]Duramycin as a SPECT Imaging Agent for Early Assessment of Tumor Apoptosis” (Molecular Imaging and Biology, 2015).

For the data set the following is noted: read-out: Kd for binding to PE; cited from earlier work. Here is the method: Duramycin is a 19-amino acid peptide that recognizes both apoptotic and necrotic cells by binding to PE with high affinity (Kd ∼ 5 nM) and specificity. The low molecular weight (MW) of duramycin (∼2 kDa) confers this tracer with favorable pharmacokinetics and biodistribution properties for in vivo imaging of apoptosis. [^99mTc]Duramycin has been successfully used as a probe for the imaging of cell death in animal models of cerebral and myocardial ischemia–reperfusion, accumulating in tissue sites of injury where there is high apoptotic activity. Additionally, ...

A word on the Kd: it is the constant that tells how readily two partners part at equilibrium. As to Duramycin, the Kd was about 5 nM.
